In ChEMBL document CHEMBL3259536, “New 2H-chromene-3-carboxamide derivatives: design, synthesis and use as inhibitors of hMAO” (Eur J Med Chem, 2014):
pIC50: −log10 of the molar value.

Sequences of proteins named here, by UniProt entry; tags and fusion partners are left off.
UniProt P27338, whole entry: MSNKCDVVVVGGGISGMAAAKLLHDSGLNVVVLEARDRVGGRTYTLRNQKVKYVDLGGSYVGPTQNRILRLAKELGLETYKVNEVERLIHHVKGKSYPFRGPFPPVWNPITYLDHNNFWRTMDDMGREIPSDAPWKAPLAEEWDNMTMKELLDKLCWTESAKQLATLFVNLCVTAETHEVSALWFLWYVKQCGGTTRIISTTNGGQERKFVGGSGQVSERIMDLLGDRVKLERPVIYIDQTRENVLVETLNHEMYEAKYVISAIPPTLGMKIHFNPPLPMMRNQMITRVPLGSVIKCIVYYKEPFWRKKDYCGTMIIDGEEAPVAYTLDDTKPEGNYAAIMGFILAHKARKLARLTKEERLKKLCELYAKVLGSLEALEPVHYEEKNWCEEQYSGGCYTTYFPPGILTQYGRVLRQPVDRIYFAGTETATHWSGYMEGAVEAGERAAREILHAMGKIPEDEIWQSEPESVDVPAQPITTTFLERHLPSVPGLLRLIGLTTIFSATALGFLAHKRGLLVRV

Target: Amine oxidase [flavin-containing] B (Homo sapiens, UniProt P27338)
Experiment: Inhibition of human recombinant MAO-B expressed in baculovirus infected insect cell microsomes assessed as p-tyramine conversion to resorufin and H2O2 after 15 mins by fluorimetric assay

pIC50 | Compound
6.03 | Cc1cccc(NC(=O)c2cc3ccccc3oc2=O)c1
5.48 | O=C(Nc1cccc(C(F)(F)F)c1)c1cc2ccccc2oc1=O
